# Target: human PTH1 receptor (Homo sapiens, UniProt Q03431)
# Chains of the proteins cited; added tags and fusions are not shown. Residues count along the entry.
# UniProt Q03431, 27-593 limits assumed: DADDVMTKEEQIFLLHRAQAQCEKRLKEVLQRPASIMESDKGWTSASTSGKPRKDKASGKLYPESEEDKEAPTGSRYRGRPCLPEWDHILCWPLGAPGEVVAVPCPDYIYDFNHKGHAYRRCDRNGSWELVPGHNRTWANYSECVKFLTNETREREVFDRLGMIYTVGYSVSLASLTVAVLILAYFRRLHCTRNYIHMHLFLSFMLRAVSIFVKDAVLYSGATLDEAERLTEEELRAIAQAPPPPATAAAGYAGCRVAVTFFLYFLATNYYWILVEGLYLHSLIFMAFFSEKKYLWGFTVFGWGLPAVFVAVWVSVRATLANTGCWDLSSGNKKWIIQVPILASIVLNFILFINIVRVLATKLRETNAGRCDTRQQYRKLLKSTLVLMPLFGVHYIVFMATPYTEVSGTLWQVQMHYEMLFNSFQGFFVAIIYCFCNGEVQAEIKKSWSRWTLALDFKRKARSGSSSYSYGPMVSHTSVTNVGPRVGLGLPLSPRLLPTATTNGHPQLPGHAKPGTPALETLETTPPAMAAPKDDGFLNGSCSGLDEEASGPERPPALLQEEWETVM
# Test: In vitro cAMP signal activity in HKRK-B7 cells (LLC-PK1 cells overexpressing the human PTH1 receptor)
# Format: cell-based
# Details: compound at 1×10^−3 M, cAMP produced as percentage of that produced by hPTH(1-34) at 100 nM
compound,measurement,value
CC(=O)N(c1ccc(/C=C/S(=O)(=O)N2CCC3(CC2)N=C(c2cccc(OC(F)(F)F)c2)NC3=O)c(C)c1)C1CCNCC1,cAMP production activity (%),24%
